Laboratory results as given in ChEMBL document CHEMBL1138325, “Design, synthesis, in vitro, and in vivo characterization of phenylpiperazines and pyridinylpiperazines as potent and selective antagonists of the melanocortin-4 receptor” (J Med Chem, 2007).

Test system: Caco-2
Assay: Ratio of permeability from basolateral to apical side over apical to basolateral side of Caco-2 cells
Assay type: ADME, cell-based
Details: human

Ratio: 4.4
Compound: Cc1ccc(N2CCN(C(=O)[C@H](C)Cc3ccc(Cl)cc3)CC2)c([C@@H](N)CC(C)C)c1
